Data from US20100061982A1, “3-SUBSTITUTED-1H-INDOLE, 3-SUBSTITUTED-1H-PYRROLO[2,3-B]PYRIDINE AND 3-SUBSTITUTED-1H-PYRROLO[3,2-B]PYRIDINE COMPOUNDS, THEIR USE AS MTOR KINASE AND PI3 KINASE INHIBITORS, AND THEIR SYNTHESES” (priority 2008, published 2010).

Protein sequences, listed by entry. Tags and fused reporters are not part of them.
UniProt P42336, whole entry, species assumed: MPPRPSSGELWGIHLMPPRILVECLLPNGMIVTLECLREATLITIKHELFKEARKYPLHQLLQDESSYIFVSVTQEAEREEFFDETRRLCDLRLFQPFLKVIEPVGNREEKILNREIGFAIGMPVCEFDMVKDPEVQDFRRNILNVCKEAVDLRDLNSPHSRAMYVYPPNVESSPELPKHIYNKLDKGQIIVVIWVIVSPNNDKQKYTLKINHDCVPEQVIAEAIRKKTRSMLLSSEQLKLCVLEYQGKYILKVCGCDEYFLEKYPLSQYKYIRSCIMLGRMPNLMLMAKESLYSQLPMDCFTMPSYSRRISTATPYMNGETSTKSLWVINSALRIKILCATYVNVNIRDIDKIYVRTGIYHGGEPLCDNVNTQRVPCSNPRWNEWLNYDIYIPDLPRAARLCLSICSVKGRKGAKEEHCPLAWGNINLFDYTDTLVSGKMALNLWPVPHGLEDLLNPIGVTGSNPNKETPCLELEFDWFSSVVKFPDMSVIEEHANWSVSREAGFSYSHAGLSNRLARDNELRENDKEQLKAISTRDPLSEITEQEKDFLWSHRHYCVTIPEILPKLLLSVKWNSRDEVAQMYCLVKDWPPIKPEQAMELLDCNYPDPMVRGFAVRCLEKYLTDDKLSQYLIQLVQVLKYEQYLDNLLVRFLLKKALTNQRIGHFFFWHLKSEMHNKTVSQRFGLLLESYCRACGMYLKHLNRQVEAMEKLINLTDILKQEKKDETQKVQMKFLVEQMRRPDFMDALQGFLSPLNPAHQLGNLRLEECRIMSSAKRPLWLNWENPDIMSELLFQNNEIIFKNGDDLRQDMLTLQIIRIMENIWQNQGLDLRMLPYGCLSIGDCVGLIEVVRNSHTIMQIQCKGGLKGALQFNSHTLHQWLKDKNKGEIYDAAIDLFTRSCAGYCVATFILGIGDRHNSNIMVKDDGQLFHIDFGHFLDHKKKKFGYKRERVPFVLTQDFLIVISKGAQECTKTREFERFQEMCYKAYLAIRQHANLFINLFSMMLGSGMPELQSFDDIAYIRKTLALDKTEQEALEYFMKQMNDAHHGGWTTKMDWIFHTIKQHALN

Target: PI3K alpha (Homo sapiens, UniProt P42336)
Experiment: PI3K-alpha Fluorescence Polarization Assay
Assay type: biochemical
Experimental: The reaction buffer was 20 mM HEPES pH7.5, 2 mM MgCl2, 0.05% CHAPS, and 0.01% βME (added fresh). The substrate solution was 40 μM PIP2 (diC8, Echelon, Salt Lake City Utah cat #P-4508, 1 mM in water) and 50 μM ATP in the reaction buffer. Nunc 384-well black polypropylene fluorescent plates were used for PI3K assays. The assay is run by putting 9.5 μl of freshly diluted enzyme in the reaction buffer per well, adding 0.5 μl of diluted drug or DMSO, and mixing. Then 10 μl of the substrate solution is added to each well to start the reaction. A final concentration of 20 μM PIP2 and 25 μM ATP in the reaction was used. Reactions were allowed to proceed for 30-60 minutes at room temperature. After 30-60 minutes, 20 μl of a solution of 10 nM TAMRA detector (Red detector probe-Echelon) and 2.5 μM of GST-murineGRP (1.5 mg/ml in 17% glycerol) was added per well to stop the reaction. The resulting solution was mixed well and allowed to stand for 90-110 minutes before reading plate. Assay Plates were read on Perkin-Elmer Envision plate readers with appropriate filters for Tamra [BODIPY-TMRI(1,3,4,5)P4]. Data obtained were used to calculate enzymatic activity and enzyme inhibition by inhibitor compounds. It is important to keep Red probe solutions dark. This procedure is adapted from Echelon Biosciences Inc procedure for their PI3-Kinase fluorescence polarization activity Assay kit Product number K-1100.

IC50: < 3 nM
Compound: COc1ccc2[nH]c(-c3ccccc3)c(C=C3Oc4cc(O)cc(O)c4C3=O)c2c1 [4,6-dihydroxy-2-[(5-methoxy-2-phenyl-1H-indol-3-yl)methylene]-1-benzofuran-3(2H)-one]
